Test results as given in patent publication US11168075B2, “Compounds and their use for reducing uric acid levels” (Acquist LLC, priority 2016, dated 2021).

Protein sequences, listed by entry. Tags and fused reporters are not part of them. Lines headed by an entry give the natural chain unless they say otherwise; changes in a name come on top.
UniProt Q96S37: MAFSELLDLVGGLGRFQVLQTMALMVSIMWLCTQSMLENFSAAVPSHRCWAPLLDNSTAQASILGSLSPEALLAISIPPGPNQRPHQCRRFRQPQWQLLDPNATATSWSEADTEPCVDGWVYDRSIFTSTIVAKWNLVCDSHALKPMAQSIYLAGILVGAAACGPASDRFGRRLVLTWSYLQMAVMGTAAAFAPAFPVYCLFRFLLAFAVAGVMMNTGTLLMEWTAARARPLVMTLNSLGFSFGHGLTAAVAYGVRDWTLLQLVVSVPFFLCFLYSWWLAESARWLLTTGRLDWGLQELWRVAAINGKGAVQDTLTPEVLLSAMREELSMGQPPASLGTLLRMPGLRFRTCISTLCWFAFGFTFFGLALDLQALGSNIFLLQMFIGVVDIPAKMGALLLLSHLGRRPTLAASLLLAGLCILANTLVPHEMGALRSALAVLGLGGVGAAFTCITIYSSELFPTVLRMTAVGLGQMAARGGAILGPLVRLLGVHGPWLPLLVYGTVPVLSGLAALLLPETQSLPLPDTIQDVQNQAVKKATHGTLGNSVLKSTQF

Columns and labels:
URAT1 (SLC22A12) [1] = biological target: T1, URAT1 (SLC22A12) (Homo sapiens (Human), UniProt Q96S37); assay: cell-based
URAT1 (SLC22A12) [2] = biological target: T1, URAT1 (SLC22A12); details: statement in words

Structure (SMILES) | IC50 (URAT1 (SLC22A12) [1]) | bifunctional inhibition (URAT1 and xanthine oxidase) (URAT1 (SLC22A12) [2])
COc1nc(O)c(C(=O)Nc2ccc(-c3cnn[nH]3)cc2)c(=O)[nH]1 [Formula (IIb), N-(4-(3H-1,2,3-triazol-4-yl)phenyl)-4-hydroxy-2-methoxy-6-oxo-1,6-dihydropyrimidine-5-carboxamide] | 12.1 µM | 
CC(C)Sc1nc(O)c(C(=O)Nc2ccc(-c3c[nH]nn3)cc2)c(=O)[nH]1 [Formula (IId), N-(4-(1H-1,2,3-triazol-5-yl)phenyl)-4-hydroxy-2-(isopropylthio)-6-oxo-1,6-dihydropyrimidine-5-carboxamide] |  | particularly effective bifunctional inhibitor
N=C(Nc1ccc(-c2c[nH]nn2)cc1)c1c(O)[nH]c(=O)[nH]c1=O [Formula (Ia), N-(4-(1H-1,2,3-triazol-4-yl)phenyl)-6-hydroxy-2,4-dioxo-1,2,3,4-tetrahydropyrimidine-5-carboximidamide] | > 4.8 µM | 
O=c1[nH]c(O)c(/C(=N\O)Nc2ccc(-c3cnn[nH]3)cc2)c(=O)[nH]1 [Formula (Ic), (E)-N-(4-(1H-1,2,3-triazol-5-yl)phenyl)-N′-hydroxy-2,4,6-trioxohexahydro-pyrimidine-5-carboximidamide] | > 150 µM | 
Cn1c(O)c(C(=O)Nc2ccc(-c3c[nH]nn3)cc2)c(=O)n(C)c1=O [Formula (Ie), N-(4-(1H-1,2,3-triazol-4-yl)phenyl)-6-hydroxy-1,3-dimethyl-2,4-dioxo-1,2,3,4-tetrahydropyrimidine-5-carboxamide] | > 37.5 µM | 
Cn1c(O)c(C(=N)Nc2ccc(-c3cnn[nH]3)cc2)c(=O)n(C)c1=O [Formula (If), N-(4-(1H-1,2,3-triazol-5-yl)phenyl)-6-hydroxy-1,3-dimethyl-2,4-dioxo-1,2,3,4-tetrahydropyrimidine-5-carboximidamide] | > 9 µM | 
Cn1c(O)nc(O)c(C(=O)Nc2ccc(-c3c[nH]nn3)cc2)c1=O [Formula (Ig), N-(4-(1H-1,2,3-triazol-4-yl)phenyl)-2,4-dihydroxy-1-methyl-6-oxo-1,6-dihydropyrimidine-5-carboxamide] | > 150 µM | 
Cn1c(=O)[nH]c(O)c(C(=N)Nc2ccc(-c3cnn[nH]3)cc2)c1=O [Formula (Ih)] | > 18.8 µM | 
O=c1[nH]c(=O)c2c(Nc3ccc(-c4cnn[nH]4)cc3)noc2[nH]1 [Formula (VIa), 3-((4-(1H-1,2,3-triazol-5-yl)phenyl)amino)isoxazolo[5,4-d]pyrimidine-4,6(5H,7H)-dione] | > 37.5 µM | 
O=c1[nH]c(=O)c2c(Nc3ccc(-c4cnn[nH]4)cc3)n[nH]c2[nH]1 [Formula (VIb), 3-((4-(1H-1,2,3-triazol-5-yl)phenyl)amino)-1H-pyrazolo[3,4-d]pyrimidine-4,6(5H,7H)-dione] | > 27 µM | 
